Test results taken from publication PMC5458644 (Neoplasia (New York, N.Y.), 2017).

Test system: human tumor-infiltrating lymphocytes (TILs)
Test: Ex vivo assay of disaggregated resected NSCLC tumors, γ-interferon ELISA
Type: cell-based
Conditions: rh-IL-2 6000 U/ml; 3 days culture

In the case of “IL-2: recombinant human IL-2 added at seeding (6000 U/ml)”, the “T-cell activity (γ-interferon) with IL-2 alone” value is reported as “little to no activity”.
